{"sequences": {"note": "The chains behind the UniProt entries cited, without tags or fusion partners.", "UniProt P12821, whole entry": "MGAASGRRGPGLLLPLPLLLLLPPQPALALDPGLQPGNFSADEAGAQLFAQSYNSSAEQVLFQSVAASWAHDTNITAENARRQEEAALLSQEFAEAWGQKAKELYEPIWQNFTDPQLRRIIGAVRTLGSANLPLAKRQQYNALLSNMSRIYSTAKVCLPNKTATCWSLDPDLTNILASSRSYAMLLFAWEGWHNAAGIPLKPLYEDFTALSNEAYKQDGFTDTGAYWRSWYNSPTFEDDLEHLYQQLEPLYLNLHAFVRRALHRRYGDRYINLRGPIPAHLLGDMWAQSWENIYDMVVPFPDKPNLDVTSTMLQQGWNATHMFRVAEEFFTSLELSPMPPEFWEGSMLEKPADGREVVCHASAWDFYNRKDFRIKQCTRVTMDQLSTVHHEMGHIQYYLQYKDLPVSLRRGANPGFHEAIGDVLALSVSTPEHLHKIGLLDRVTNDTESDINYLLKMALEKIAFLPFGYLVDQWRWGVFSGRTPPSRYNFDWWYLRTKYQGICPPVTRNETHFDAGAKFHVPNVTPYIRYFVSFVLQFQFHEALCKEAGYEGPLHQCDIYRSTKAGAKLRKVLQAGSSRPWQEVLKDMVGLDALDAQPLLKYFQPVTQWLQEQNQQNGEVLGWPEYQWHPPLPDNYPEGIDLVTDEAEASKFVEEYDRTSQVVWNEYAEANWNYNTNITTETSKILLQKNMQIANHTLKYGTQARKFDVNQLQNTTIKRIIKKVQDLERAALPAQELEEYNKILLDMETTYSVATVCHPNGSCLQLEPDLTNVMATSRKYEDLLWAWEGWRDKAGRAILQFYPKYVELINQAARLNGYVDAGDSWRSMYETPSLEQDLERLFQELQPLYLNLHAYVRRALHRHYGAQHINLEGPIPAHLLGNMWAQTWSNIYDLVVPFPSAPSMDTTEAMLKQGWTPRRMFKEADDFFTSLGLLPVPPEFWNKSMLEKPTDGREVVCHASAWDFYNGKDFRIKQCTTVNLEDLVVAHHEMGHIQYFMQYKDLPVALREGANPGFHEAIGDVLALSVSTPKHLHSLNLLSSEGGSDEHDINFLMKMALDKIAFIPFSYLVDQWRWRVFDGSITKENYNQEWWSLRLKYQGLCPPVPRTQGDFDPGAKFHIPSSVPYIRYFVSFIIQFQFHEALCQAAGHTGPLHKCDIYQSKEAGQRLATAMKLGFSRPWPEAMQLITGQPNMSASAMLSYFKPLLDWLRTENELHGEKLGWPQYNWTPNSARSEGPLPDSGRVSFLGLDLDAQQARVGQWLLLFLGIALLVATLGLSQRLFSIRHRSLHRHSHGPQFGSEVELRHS"}, "source": "ChEMBL document CHEMBL3352520", "about": "“CoMFA and CoMSIA analysis of ACE-inhibitory, antimicrobial and bitter-tasting peptides” (Eur J Med Chem, 2014)", "target": "Angiotensin-converting enzyme (Homo sapiens) (UniProt P12821)", "assay": "Inhibition of ACE (unknown origin)", "parameters": "unit not given here", "data": [{"smiles": "CC(C)C[C@H](NC(=O)[C@@H]1CCCN1C(=O)[C@H](CC(C)C)NC(=O)[C@@H](N)Cc1cnc[nH]1)C(=O)N1CCC[C@H]1C(=O)O", "values": [{"measurement": "logIC50", "result": 1.61}]}]}
